Data as given in ChEMBL document CHEMBL4041499, “Synthesis and evaluation of 7-substituted coumarin derivatives as multimodal monoamine oxidase-B and cholinesterase inhibitors for the treatment of Alzheimer's disease” (Eur J Med Chem, 2017).

Sequences of proteins named here, by UniProt entry; tags and fusion partners are left off.
UniProt P27338, whole entry: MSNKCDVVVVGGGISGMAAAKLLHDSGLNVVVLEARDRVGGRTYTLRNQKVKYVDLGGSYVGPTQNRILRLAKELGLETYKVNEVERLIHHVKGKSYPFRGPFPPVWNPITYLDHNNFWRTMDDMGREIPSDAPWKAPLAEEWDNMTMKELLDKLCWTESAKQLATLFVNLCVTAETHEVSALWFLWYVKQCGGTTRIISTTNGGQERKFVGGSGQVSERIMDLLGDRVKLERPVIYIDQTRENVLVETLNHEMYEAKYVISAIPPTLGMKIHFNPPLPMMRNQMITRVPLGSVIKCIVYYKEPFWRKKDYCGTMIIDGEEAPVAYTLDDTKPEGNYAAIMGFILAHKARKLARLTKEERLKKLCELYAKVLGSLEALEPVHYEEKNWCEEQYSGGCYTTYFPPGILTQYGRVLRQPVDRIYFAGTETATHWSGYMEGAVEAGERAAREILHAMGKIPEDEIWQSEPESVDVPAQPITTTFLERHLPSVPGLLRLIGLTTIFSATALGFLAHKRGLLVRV

Target: Amine oxidase [flavin-containing] B (Homo sapiens, UniProt P27338)

| Compound | IC50 [nM] |
| --- | --- |
| Cc1cc(=O)oc2cc(OCCN3CCC(Cc4ccccc4)CC3)ccc12 | 530 |
| Cc1cc(=O)oc2cc(OCCN3CCCCC3)ccc12 | 3090 |
| O=c1ccc2ccc(OCCN3CCC(Cc4ccccc4)CC3)cc2o1 | 470 |
| Cc1cc(=O)oc2cc(OCc3ccc(Br)cc3)ccc12 | 0.9 |
